Values quoted from earlier work, collected in paper PMC6175296 (Clinical Pharmacology and Therapeutics, 2017).

System: UGT1A3
Details: up; depending on UGT1A3 genotype; cited from earlier work

CC(C)(O)c1ccccc1CC[C@@H](SCC1(CC(=O)O)CC1)c1cccc(/C=C/c2ccc3ccc(Cl)cc3n2)c1 [Montelukast]
share of metabolism accounted for by UGT1A3: 35–60%
